{"sequences": {"note": "Sequences of proteins named here, by UniProt entry; tags and fusion partners are left off.", "UniProt P35367, whole entry": "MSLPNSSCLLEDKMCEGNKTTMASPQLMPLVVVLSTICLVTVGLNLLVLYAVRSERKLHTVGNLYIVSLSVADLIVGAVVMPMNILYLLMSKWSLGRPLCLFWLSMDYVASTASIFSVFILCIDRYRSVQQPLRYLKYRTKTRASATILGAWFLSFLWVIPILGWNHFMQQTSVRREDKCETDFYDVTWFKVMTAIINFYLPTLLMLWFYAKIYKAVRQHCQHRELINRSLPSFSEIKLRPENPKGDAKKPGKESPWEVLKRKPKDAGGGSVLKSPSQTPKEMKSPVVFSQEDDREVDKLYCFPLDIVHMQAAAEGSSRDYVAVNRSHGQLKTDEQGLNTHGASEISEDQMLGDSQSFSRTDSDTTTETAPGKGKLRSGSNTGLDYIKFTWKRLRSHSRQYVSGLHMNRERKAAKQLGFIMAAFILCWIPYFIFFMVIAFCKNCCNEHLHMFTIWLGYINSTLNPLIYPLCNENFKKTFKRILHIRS"}, "source": "BindingDB's records for doi:10.1016/0006-8993(84)90856-4", "about": "(Mayo Foundation, 1984)", "target": "Histamine H1 receptor (Homo sapiens, UniProt P35367)"}
{"compound": "CN1CCN(C2=c3ccccc3=Nc3ccc(Cl)cc3N2)CC1", "note": "[6-chloro-10-(4-methylpiperazin-1-yl)-2,9-diazatricyclo[9.4.0.0^{3,8}]pentadeca-1,3(8),4,6,10,12,14-heptaene]", "values": [{"measurement": "Ki", "result": 1.2, "unit": "nM"}]}
{"compound": "CN1CCN(CC/C=C2/c3ccccc3Sc3ccc(S(=O)(=O)N(C)C)cc32)CC1", "note": "[MLS000028463]", "values": [{"measurement": "Ki", "result": 4.4, "unit": "nM"}]}
